For assay [1], the target named is T1, UDP-glucuronosyltransferase 1A1 (Homo sapiens, UniProt P22309).
T1 sequence (P22309 whole entry): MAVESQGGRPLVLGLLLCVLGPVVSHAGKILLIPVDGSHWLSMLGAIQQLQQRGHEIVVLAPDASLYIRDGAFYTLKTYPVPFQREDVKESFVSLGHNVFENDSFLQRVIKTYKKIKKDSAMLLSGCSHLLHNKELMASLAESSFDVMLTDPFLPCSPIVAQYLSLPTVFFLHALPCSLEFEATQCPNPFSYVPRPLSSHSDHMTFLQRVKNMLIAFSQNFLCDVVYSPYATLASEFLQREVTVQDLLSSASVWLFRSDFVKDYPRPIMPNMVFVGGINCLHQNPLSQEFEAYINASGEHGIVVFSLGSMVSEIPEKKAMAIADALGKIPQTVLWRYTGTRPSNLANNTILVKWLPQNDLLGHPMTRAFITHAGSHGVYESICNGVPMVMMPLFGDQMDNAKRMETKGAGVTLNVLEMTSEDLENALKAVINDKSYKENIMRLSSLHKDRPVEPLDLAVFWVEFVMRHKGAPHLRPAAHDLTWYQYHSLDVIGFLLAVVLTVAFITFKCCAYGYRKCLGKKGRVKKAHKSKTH
Nature of the assay: Inhibition of human recombinant UGT1A1 expressed in HEK293 cells assessed as reduction in estradiol 3-glucuronidation by LC-MS/MS method. Format: ADME, cell-based.

Assay [2] has as its target T1, UDP-glucuronosyltransferase 1A1. The assay can be described thus: Inhibition of human recombinant UGT1A1 expressed in HEK293 cells assessed as reduction in bilirubin glucuronidation by LC-MS/MS method. It counts as ADME, cell-based.

Broadly, the IC50 is the midpoint of a concentration-inhibition curve.

For the compound `COc1ccccc1OCCNCC(O)COc1cccc2[nH]c3ccccc3c12` (configuration not stated) [CARVEDILOL], the IC50 in assay [1] worked out at 12 µM; in assay [2] it was 27 µM.

(Values after ChEMBL document CHEMBL3526014, “Correlation between bilirubin glucuronidation and estradiol-3-gluronidation in the presence of model UDP-glucuronosyltransferase 1A1 substrates/inhibitors” (Drug Metab Dispos, 2011).)
